What was measured:
[1] = tested on: mammalian cells (J774A.1 and HaCat); assay: Cytotoxicity, MTS assay, statement for both cell lines; conditions: 24 hours
Description: Peptides were assayed at different concentrations against macrophage-like cell line (J774A.1) and human keratinocyte (HaCat) to determine the potential toxic effect in vitro. […] Untreated cells were used as a negative control. […] After incubation, the cells were washed three times with PBS and the media in each well were replaced with 100 µL of DMEM media and 20 µL of assay reagent, MTS 3-(4,5-dimethylthiazol-2-yl)-5-(3-carboxymethoxyphenyl)-2-(4-sulfophenyl)-2H-tetrazolium) (Promega, Madison, WI, USA). The cells were incubated further for 4 h at 37°C. Corrected absorbance readings (actual absorbance readings for each treatment subtracted from background absorbance) were taken using a kinetic ELISA microplate reader (Molecular Devices, Sunnyvale, CA, USA). Cell viability was expressed as percentage of absorbance in comparison to negative control, untreated cells.
Cytotoxicity data were subjected to statistical analysis using GraphPad Prism 6.0 (GraphPad Software, La Jolla, CA). Cytotoxicity data were analyzed using one-way ANOVA, with post hoc Tukey's multiple comparisons test. P-values of <0.01 were considered significant.

[2] = tested on: S. pseudintermedius strains; format: cell-based, Staphylococcus pseudintermedius; conditions: 24 h
Description: The broth microdilution technique was used to determine the minimum inhibitory concentrations (MIC) of peptides and antibiotics in MHB in accordance with the Clinical and Laboratory Standards Institute (CLSI) guidelines. Peptides were dissolved in sterile distilled water containing 0.02% acetic acid. MIC assays were carried out with an initial bacterial inoculum of 5×10^5 colony forming unit (CFU/ml). Peptides and antibiotics were added to Polystyrene 96 well plates (CytoOne, CC7672-7596) at desired concentrations and plates were incubated for 24 hr at 37°C. MIC was defined as the lowest concentration of peptide which inhibited the visible growth of bacteria. MIC was done in triplicates and the highest value was reported.
Untreated cells were used as a negative control.

## CC[C@H](C)[C@H](NC(=O)[C@H](CCCCN)NC(=O)[C@@H](NC(=O)[C@H](CCC(N)=O)NC(=O)[C@@H](N)CCCNC(=N)N)[C@@H](C)CC)C(=O)N[C@@H](Cc1c[nH]c2ccccc12)C(=O)N[C@@H](Cc1ccccc1)C(=O)N[C@@H](CCC(N)=O)C(=O)N[C@@H](CC(N)=O)C(=O)N[C@@H](CCCNC(=N)N)C(=O)N[C@@H](CCCNC(=N)N)C(=O)N[C@@H](CCSC)C(=O)N[C@@H](CCCCN)C(=O)N[C@@H](Cc1c[nH]c2ccccc12)C(=O)N[C@@H](CCCCN)C(=O)N[C@@H](CCCCN)C(=O)O [Penetratin]
[1]
  concentration up to which not toxic to mammalian cells: up to 256 µM
[2]
  GM MIC S. pseudintermedius: 8.76 µM

— article PMC4281220, “Antibacterial Activity of Novel Cationic Peptides against Clinical Isolates of Multi-Drug Resistant Staphylococcus pseudintermedius from Infected Dogs” (PLoS ONE, 2014)
